Results from PubChem BioAssay AID602363 (Broad Institute, 2012).
Out of some 350,000 compounds screened, about 450 (0.13%) were called active.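 How the source made its calls: active means replicate mean at a twofold rise or more (about +100% in these data); inactive means the rest.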 For the sample, actives were picked, then their nearest neighbours and some compounds at random.

Test: UUG initiation codon usage in yeast – whole organism, S. cerevisiae, single point, plate reader, primary screen (AID 602363);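 further: firefly luciferase made from a UUG start codon reports start codon fidelity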
Details: S. cerevisiae UUG-firefly luciferase reporter, luminescence/redox ratio; at 18.7 µM; active compounds read high

Activity score, inactive:
COc1ccc(NC(=O)Nc2cccc3c2O[C@@H](CN(C)Cc2ccncc2)[C@H](C)CN([C@H](C)CO)C3=O)cc1 -5.85%
CC(C)C#Cc1ccc2c(c1)O[C@@H](CN(C)C(=O)Nc1ccccc1)[C@H](C)CN([C@H](C)CO)S2(=O)=O -2.56%
CCC(=O)N(C)C[C@@H]1Oc2ncc(C#CCC3CCCC3)cc2C(=O)N([C@@H](C)CO)C[C@H]1C 5.33%
O=C(c1ccncc1)N1C[C@H]2[C@@H](c3ccccc31)[C@H](CO)N2C(=O)c1ccccn1 -20.1%
O=C(N[C@H]1CC[C@@H](CCNS(=O)(=O)c2ccc(Cl)cc2)O[C@H]1CO)c1cccc(F)c1 12.6%
CC(C)CC#Cc1cnc2c(c1)C(=O)N([C@H](C)CO)C[C@H](C)[C@@H](CN(C)Cc1ccccc1)O2 16.5%
C[C@H](CO)N1C[C@H](C)[C@@H](CN(C)C(=O)C2CCCCC2)Oc2cc(-c3ccccc3)ccc2S1(=O)=O 9.53%
C[C@H]1CN([C@@H](C)CO)C(=O)c2cc(NC(=O)Cn3cnnn3)ccc2O[C@@H]1CN(C)S(=O)(=O)c1cccs1 -10.2%
O=C(O)C[C@@H]1C[C@@H]2c3cc(NC(=O)NC4CCCC4)ccc3O[C@@H]2[C@H](CO)O1 -9.94%
COc1cccc(S(=O)(=O)Nc2ccc3c(c2)[C@H]2C[C@H](CC(=O)O)O[C@H](CO)[C@H]2O3)c1 -0.528%
Cc1noc(C)c1NC(=O)Nc1ccc2c(c1)C(=O)N([C@H](C)CO)C[C@H](C)[C@@H](CN(C)Cc1ccc3c(c1)OCO3)OCCCC[C@@H](C)O2 -5.08%
C[C@@H]1CN([C@@H](C)CO)C(=O)c2cc(C#CC(C)(C)O)cnc2O[C@@H]1CN(C)C(=O)C1CCOCC1 -1.48%
CCc1ccc(NC(=O)CN2C(=O)CSC2=O)cc1 -4.72%
Cc1cccc(NC(=O)CN2C(=O)CNC2=O)c1 -17.5%
CCCNC(=O)N(C)C[C@H]1Oc2ncc(C#CC(C)C)cc2C(=O)N([C@@H](C)CO)C[C@@H]1C 11.9%
CO[C@H]1CN(C)C(=O)c2cc(NC(=O)c3cc(C)on3)ccc2OC[C@H](C)N(C(C)=O)C[C@H]1C 7.59%
O=C(Cc1ccccn1)N[C@H]1CC[C@H](CCNS(=O)(=O)c2cccc(F)c2)O[C@@H]1CO -14.5%
CC(=O)N1C[C@@H]2[C@H](c3ccccc31)[C@H](CO)N2C(=O)Nc1ccc(F)cc1 27%
O=C(C[C@@H]1C=C[C@H](NC(=O)CCN2CCCCC2)[C@H](CO)O1)NCc1ccc(Cl)c(Cl)c1 -10.1%
Cc1ccc(NC(=O)c2ccco2)cc1 13.9%
O=C(NNC(=O)c1ccco1)Nc1ccccc1 -11.9%
CC(C)NC(=O)N1CCCCN2[C@H](CO)[C@H](c3ccc(C#C[C@H](C)O)cc3)[C@H]2C1 4.66%
Cc1noc(C)c1S(=O)(=O)N(C)C[C@@H]1OCCCC[C@H](C)Oc2ccc(NC(=O)Nc3ccc4c(c3)OCO4)cc2C(=O)N([C@H](C)CO)C[C@@H]1C -17.6%
O=C(Nc1ccc(Cl)cc1)N1C[C@@H]2[C@H](c3ccccc31)[C@@H](CO)N2C(=O)c1cccnc1 -17%
CC(C)NC(=O)Nc1ccc2c(c1)C(=O)N([C@@H](C)CO)C[C@H](C)[C@@H](CN(C)C(=O)Nc1ccc(F)cc1)OCCCC[C@H](C)O2 -6.2%
C[C@H](CO)N1C[C@H](C)[C@H](CN(C)Cc2ccc3c(c2)OCO3)Oc2c(cccc2N(C)C)C1=O -9.31%
COc1ccc(S(=O)(=O)N(C)C[C@H]2OCCCC[C@@H](C)Oc3ccc(NC(=O)CCC(F)(F)F)cc3C(=O)N([C@@H](C)CO)C[C@H]2C)cc1 1.93%
C=CCOC(=O)[C@H]1[C@@H]2C(=O)O[C@@H](c3ccccc3)[C@@H](c3ccccc3)N2[C@@H](c2ccc(OCCOC(=O)[C@H]3C[C@H]4C(=O)NCC(=O)N4[C@H]3c3ccc(O)cc3)cc2)[C@]12C(=O)Nc1ccccc12 -7.32%
COc1ccccc1-c1cnc2c(c1)C(=O)N([C@H](C)CO)C[C@@H](C)[C@@H](CN(C)CC1CCCC1)O2 -0.682%
C[C@H](CO)N1C[C@H](C)[C@H](CN(C)C(=O)c2ccccn2)Oc2ncc(-c3ccccc3F)cc2C1=O 9.71%
Cc1noc(C)c1NC(=O)N(C)C[C@@H]1Oc2ccc(NS(=O)(=O)c3ccc(Cl)cc3)cc2C(=O)N([C@@H](C)CO)C[C@H]1C 9.56%
C[C@H](CO)N1C[C@H](C)[C@@H](CN(C)Cc2ccc(Cl)c(Cl)c2)Oc2c(NC(=O)C3CCCCC3)cccc2C1=O 0.419%
CO[C@H]1CN(C)C(=O)c2cc(NS(C)(=O)=O)ccc2OC[C@H](C)N(C(=O)C2CCCC2)C[C@H]1C -1.38%
C[C@@H]1CN([C@H](C)CO)C(=O)Cc2cc(NS(=O)(=O)c3ccc(Cl)cc3)ccc2O[C@@H]1CN(C)S(=O)(=O)c1ccc(Cl)cc1 -17.9%
Cc1ccc(S(=O)(=O)N(C)C[C@@H]2Oc3ccc(NS(=O)(=O)c4c(C)noc4C)cc3CC(=O)N([C@H](C)CO)C[C@H]2C)cc1 12.2%
CCCNC(=O)C[C@H]1CC[C@@H]2[C@H](COc3ccc(NC(=O)c4ccc(OC)cc4)cc3C(=O)N2C)O1 4.65%
C[C@@H](NC(=O)C[C@H]1C[C@H]2c3cc(NC(=O)Nc4ccccc4F)ccc3O[C@H]2[C@@H](CO)O1)c1ccccc1 -2.05%
CCCNC(=O)N1C[C@@H](O)COC[C@H]2O[C@@H](CC(=O)NCCCN3CCOCC3)CC[C@@H]21 -4.24%

Activity score, active:
CC(=O)N1CC(=O)N(CC(=O)Nc2ccc(Br)cc2)C1=S 120%
O=C(Nc1ccc(Oc2ccccc2)cc1)c1ccco1 570%
